Binding of CDR-mutated scFvs to a peptide of the spike HR2 region

The measurements come from Engelhart et al. 2022 (doi:10.1038/s41597-022-01779-4) through the FLAb antibody collection.

Target peptide (SARS-CoV-2 spike, HR2 region): PDVDLGDISGINAS

Parent: Ab-14, a human scFv built as VH, the linker GGGGSGGGGSGGGGS, VL. Only the CDRs of the heavy chain vary.
VH: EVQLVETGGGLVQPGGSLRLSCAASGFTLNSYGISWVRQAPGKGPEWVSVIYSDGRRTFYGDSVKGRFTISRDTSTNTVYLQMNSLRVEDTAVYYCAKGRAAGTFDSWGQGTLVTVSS
VL: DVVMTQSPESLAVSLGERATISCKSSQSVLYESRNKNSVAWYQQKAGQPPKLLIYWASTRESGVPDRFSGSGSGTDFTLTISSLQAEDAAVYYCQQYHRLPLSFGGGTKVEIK

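Phage display of a naive human antibody library on the peptide gave the parent. Library AAYL49 holds single substitutions and randomly drawn double and triple substitutions in the CDRs. The assay is AlphaSeq: two haploid yeast populations carry antibody and antigen on their surface. The frequency of each diploid, read from paired DNA barcodes, reflects how well the two displayed proteins bind. Each replicate has its own calibration line, from reference interactions of the BCL2 family. There are three technical replicates.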

Substitutions are numbered in sequence along the VH above, starting at 1 (not Kabat). Affinities are written as log10 Kd with Kd in nM; a lower number is a better binder. An entry "nd" has no value in the source: the pair was not observed among the diploids in that replicate. This suggests poor binding but is not conclusive. Three control strains display no target. For library AAYL49, 15% of the pairings with them gave a signal, with a median of 4.06 and one signal in twenty below 2.83, so weak values seen in few replicates may be background. For each scFv, signals with the empty controls are counted beside the result, with their mean in brackets.

{"changes": "F59E A102N G103N", "replicates, log10 nM": "1.35 1.53 2.15", "empty controls": "2/9 (4.25)"}
{"changes": "T28W G61A D106K", "replicates, log10 nM": "2.34 1.91 2.21", "empty controls": "0/9"}
{"changes": "Y32I T58F R100W", "replicates, log10 nM": "nd nd nd", "empty controls": "1/9 (3.43)"}
{"changes": "G61A R100F G103Y", "replicates, log10 nM": "nd 3.45 2.48", "empty controls": "3/9 (3.82)"}
{"changes": "S31M I51D V64Q", "replicates, log10 nM": "nd 3.29 nd", "empty controls": "0/9"}
{"changes": "G26K Y32H G103H", "replicates, log10 nM": "nd nd nd", "empty controls": "2/9 (4.45)"}
{"changes": "Y52D D54T G55L", "replicates, log10 nM": "nd nd nd", "empty controls": "1/9 (3.77)"}
{"changes": "N30Y S35M G55L", "replicates, log10 nM": "4.33 3.51 nd", "empty controls": "0/9"}
{"changes": "V50F F59L", "replicates, log10 nM": "nd nd nd", "empty controls": "2/9 (5.05)"}
{"changes": "S63Y A101Y", "replicates, log10 nM": "2.79 3.18 2.45", "empty controls": "1/9 (2.95)"}
{"changes": "I51N", "replicates, log10 nM": "4.95 4.71 5.40", "empty controls": "6/9 (4.19)"}
{"changes": "G26S Y32P F105T", "replicates, log10 nM": "nd nd nd", "empty controls": "0/9"}
{"changes": "L29E S35G D62L", "replicates, log10 nM": "3.23 nd nd", "empty controls": "0/9"}
{"changes": "Y32R F105C S107C", "replicates, log10 nM": "nd 3.26 nd", "empty controls": "0/9"}
{"changes": "N30P S63W A102Y", "replicates, log10 nM": "nd nd nd", "empty controls": "1/9 (3.51)"}
{"changes": "G26T V50A R57A", "replicates, log10 nM": "nd 3.06 nd", "empty controls": "1/9 (4.63)"}
{"changes": "S35V V50M V64Y", "replicates, log10 nM": "nd nd nd", "empty controls": "0/9"}
{"changes": "D54H S63Q T104G", "replicates, log10 nM": "4.66 4.22 5.02", "empty controls": "8/9 (4.73)"}
{"changes": "T28M S53Q G103M", "replicates, log10 nM": "nd 4.99 4.98", "empty controls": "1/9 (4.66)"}
{"changes": "G55F R56A D106M", "replicates, log10 nM": "3.42 nd nd", "empty controls": "1/9 (3.47)"}
{"changes": "T104K F105R", "replicates, log10 nM": "nd nd nd", "empty controls": "1/9 (4.23)"}
{"changes": "S53N", "replicates, log10 nM": "nd nd 3.67", "empty controls": "3/9 (4.13)"}

Picked from the list: the 2 lowest averages where every replicate gave a value.

| changes | replicates, log10 nM | empty controls |
|---|---|---|
| F59E A102N G103N | 1.35 1.53 2.15 | 2/9 (4.25) |
| T28W G61A D106K | 2.34 1.91 2.21 | 0/9 |

For reference, the parent read 0.65 as the reference entry and 4.11 (one replicate of three) as a member of this library.